Test results taken from patent US10869871B2, “Compositions and methods of modulating short-chain dehydrogenase activity” (CASE WESTERN RESERVE UNIVERSITY, priority 2013, dated 2020).

Amino acid sequences for entries named in this document (tags omitted).
UniProt P15428, whole entry: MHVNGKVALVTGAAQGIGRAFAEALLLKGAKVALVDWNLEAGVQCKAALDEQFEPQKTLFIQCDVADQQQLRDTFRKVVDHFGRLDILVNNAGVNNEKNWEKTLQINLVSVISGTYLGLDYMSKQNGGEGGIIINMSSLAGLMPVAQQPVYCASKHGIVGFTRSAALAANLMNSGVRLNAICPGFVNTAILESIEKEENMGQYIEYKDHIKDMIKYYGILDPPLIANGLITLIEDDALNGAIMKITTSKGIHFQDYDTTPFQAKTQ

Assays:
recombinant 15-PGDH = recombinant 15-PGDH (Homo sapiens (Human), UniProt P15428); test: Thermal melt shift of recombinant 15-PGDH protein (SYPRO Orange); assay type: binding; conditions: 10 μM and 100 μM cofactor NAD or NADH
A549 cells = test: PGE2 levels in medium of IL1-beta stimulated A549 cells; assay type: cell-based; conditions: IL1-beta 23 hours, compound added for last 5 hours
[1] = test system: 15-PGDH activity in cell lines; test: Total 15-PGDH activity in lysed pellets of compound treated cell lines (tritium method); assay type: cell-based; conditions: FIG. 13
15-PGDH protein = test: Western blot of 15-PGDH protein levels in treated cell lines; assay type: cell-based; conditions: V400-S3-2-32 cells, 5 μM

SMILES: COc1ccc(-c2cc(C(F)(F)F)n3nc(C(=O)N4CCCCC4)cc3n2)cc1
- direct binding to 15-PGDH by melting temperature shift (recombinant 15-PGDH): show evidence of direct binding to 15-PGDH
- PGE2 level in medium, reflecting 15-PGDH activity (A549 cells): clear inhibition of 15-PGDH activity
- 15-PGDH activity in treated cells [1]: increasing 15-PGDH activity in most cell lines
- levels of 15-PGDH protein (wt-PGDH) expressed from cDNA vector (15-PGDH protein): increases levels of 15-PGDH protein (wt-PGDH)
